We go through one compound from patent publication US20090105270A1, “Kinase inhibition and anticancer therapy” (priority 2007, published 2009).

Amino acid sequences for entries named in this document (tags omitted). A change or cut given only in a name is not applied to a line headed by its entry.
UniProt Q00535, whole entry: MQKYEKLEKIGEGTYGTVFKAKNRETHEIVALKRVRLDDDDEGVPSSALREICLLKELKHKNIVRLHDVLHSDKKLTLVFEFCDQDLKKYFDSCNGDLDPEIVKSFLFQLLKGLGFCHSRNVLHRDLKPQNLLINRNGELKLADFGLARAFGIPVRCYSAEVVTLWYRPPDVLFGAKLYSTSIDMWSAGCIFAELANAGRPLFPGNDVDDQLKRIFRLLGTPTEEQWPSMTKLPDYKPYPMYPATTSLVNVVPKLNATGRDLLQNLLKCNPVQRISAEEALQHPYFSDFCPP
UniProt Q16539, whole entry T106M: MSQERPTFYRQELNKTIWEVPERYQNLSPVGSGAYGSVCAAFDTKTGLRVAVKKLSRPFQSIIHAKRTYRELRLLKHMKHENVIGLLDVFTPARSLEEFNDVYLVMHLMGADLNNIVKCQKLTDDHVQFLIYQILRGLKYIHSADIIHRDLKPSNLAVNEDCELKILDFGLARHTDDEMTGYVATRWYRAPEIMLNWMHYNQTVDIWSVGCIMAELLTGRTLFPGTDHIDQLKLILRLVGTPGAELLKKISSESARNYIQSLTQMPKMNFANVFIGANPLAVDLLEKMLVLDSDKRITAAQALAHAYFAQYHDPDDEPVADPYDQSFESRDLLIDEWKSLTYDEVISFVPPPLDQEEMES
UniProt Q99683: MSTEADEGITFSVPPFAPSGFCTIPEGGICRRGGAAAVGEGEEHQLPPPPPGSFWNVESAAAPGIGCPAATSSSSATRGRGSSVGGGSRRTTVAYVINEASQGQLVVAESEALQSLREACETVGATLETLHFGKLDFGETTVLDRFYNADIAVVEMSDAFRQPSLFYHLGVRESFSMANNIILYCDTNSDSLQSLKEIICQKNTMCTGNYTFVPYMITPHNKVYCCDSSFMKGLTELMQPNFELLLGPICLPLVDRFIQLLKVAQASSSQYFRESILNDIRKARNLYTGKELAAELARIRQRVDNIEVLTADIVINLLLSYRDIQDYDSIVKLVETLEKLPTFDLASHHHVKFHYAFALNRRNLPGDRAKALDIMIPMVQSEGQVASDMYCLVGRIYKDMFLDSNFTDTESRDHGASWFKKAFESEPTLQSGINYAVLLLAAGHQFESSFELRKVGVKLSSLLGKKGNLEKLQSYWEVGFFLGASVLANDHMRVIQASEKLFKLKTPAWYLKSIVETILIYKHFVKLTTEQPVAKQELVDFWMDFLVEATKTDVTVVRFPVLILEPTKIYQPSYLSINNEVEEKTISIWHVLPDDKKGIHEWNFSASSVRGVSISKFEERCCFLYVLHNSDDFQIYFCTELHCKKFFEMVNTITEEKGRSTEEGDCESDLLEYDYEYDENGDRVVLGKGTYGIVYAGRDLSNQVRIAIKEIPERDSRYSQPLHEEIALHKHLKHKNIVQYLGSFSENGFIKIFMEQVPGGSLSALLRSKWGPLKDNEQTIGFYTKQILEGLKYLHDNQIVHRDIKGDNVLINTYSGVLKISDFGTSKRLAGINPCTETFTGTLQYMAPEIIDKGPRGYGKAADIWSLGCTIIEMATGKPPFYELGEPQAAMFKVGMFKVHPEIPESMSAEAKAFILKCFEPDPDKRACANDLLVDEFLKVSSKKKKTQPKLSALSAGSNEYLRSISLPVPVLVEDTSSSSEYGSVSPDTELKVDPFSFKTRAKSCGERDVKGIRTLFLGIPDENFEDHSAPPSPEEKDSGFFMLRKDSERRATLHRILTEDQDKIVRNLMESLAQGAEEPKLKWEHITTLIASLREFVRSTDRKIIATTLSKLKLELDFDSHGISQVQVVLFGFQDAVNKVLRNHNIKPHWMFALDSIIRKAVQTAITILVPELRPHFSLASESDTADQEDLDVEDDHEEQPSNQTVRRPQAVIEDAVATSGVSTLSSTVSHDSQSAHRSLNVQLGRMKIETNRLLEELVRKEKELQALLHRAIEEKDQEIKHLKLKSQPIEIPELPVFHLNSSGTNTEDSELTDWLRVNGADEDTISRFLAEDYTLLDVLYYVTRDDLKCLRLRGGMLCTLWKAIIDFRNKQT
UniProt Q15831: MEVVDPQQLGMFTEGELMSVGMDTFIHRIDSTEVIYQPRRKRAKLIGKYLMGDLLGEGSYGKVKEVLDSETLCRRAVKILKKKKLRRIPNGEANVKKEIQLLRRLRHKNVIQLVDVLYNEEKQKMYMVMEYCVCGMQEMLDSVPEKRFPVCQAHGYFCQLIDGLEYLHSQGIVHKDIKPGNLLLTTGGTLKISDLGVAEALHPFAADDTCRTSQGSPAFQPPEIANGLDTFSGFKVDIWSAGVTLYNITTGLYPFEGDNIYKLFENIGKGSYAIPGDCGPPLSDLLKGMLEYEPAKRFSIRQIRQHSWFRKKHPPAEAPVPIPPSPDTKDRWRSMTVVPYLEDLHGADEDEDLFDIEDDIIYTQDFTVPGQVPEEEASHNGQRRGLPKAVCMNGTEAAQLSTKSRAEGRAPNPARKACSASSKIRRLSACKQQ
UniProt Q05655: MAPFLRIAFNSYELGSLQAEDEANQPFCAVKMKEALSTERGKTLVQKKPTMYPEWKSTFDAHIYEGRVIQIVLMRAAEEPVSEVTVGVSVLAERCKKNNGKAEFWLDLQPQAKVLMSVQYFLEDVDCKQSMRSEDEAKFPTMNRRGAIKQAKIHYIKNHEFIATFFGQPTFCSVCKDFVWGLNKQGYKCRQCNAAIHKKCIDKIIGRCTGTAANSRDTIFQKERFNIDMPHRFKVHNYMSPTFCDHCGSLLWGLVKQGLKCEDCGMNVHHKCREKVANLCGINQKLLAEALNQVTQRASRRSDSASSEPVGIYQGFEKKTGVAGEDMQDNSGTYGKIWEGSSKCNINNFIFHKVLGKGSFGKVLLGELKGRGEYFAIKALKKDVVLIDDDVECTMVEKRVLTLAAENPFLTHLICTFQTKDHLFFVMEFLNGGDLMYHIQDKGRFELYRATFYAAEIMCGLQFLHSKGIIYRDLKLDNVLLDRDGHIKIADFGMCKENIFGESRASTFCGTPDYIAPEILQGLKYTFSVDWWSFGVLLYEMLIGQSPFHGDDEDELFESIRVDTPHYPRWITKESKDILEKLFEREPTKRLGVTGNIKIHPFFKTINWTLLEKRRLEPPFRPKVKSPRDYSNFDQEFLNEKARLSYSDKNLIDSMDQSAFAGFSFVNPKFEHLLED
UniProt Q96SB4, whole entry: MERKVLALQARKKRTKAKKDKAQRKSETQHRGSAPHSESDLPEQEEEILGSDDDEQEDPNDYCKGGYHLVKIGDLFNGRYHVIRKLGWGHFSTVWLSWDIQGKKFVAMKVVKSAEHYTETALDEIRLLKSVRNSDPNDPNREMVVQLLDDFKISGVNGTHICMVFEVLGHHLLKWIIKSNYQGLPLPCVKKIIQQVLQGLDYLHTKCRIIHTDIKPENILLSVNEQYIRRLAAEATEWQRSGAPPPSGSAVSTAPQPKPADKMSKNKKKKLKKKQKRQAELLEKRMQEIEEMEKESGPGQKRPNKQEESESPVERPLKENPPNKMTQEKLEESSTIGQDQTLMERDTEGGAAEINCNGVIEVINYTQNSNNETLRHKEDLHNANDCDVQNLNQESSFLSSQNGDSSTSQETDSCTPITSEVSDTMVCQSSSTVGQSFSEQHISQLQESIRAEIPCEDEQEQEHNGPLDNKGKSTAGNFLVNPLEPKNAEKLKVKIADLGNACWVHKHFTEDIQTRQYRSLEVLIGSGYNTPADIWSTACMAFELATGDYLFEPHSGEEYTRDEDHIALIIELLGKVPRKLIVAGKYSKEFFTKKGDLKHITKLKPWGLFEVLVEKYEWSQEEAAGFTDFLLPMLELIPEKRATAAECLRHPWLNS

The target of assay [1] is T1, CDK2/cyclinE(h) (Homo sapiens, UniProt P24941).
T1 construct: purchased Upstate (KinaseProfiler service)
Kind of assay: Upstate kinase activity inhibition assay CDK2/cyclinE(h). Format: biochemical. The note with it: 0.2 μM Compound E.

In assay [2] the target is T2, CDK5/p25(h) (Homo sapiens, UniProt Q00535).
T2 construct: purchased Upstate (KinaseProfiler service)
Put plainly: Upstate kinase activity inhibition assay CDK5/p25(h). It counts as biochemical. The following applies: 40 min; read-out: percentage of enzyme activity that remains.

The target in assay [3] is T3, EGFR(L861Q)(h) (Homo sapiens, UniProt P00533, L861Q).
T3 construct: purchased Upstate (KinaseProfiler service)
Put plainly: Upstate kinase activity inhibition assay EGFR(L861Q)(h). The note with it: 0.2 μM Compound E. It counts as biochemical.

Assay [4] addresses SAPK2a(T106M)(h) (Homo sapiens, UniProt Q16539, T106M). The note with it: 4 μM Compound E.
The target of assay [5] is ASK1(h) (Homo sapiens, UniProt Q99683). Kind of assay: biochemical. The following applies: 40 min, read-out: percentage of enzyme activity that remains.
Assay [6] deals with CDK5/p35(h) (Homo sapiens, UniProt Q00535). Put plainly: biochemical. The note with it: 40 min, read-out: percentage of enzyme activity that remains.
In assay [7] the target is LKB1(h) (Homo sapiens, UniProt Q15831). Kind of assay: biochemical. The note with it: 40 min, read-out: percentage of enzyme activity that remains.
The target in assay [8] is PKCδ(h) (Homo sapiens, UniProt Q05655). Put plainly: biochemical. The following applies: 40 min, read-out: percentage of enzyme activity that remains.
Assay [9] concerns the target SRPK1(h) (Homo sapiens, UniProt Q96SB4). Put plainly: biochemical. The following applies: 40 min, read-out: percentage of enzyme activity that remains.
In assay [10] the target is EGFR(h) (Homo sapiens, UniProt P00533). Kind of assay: Upstate kinase activity inhibition assay EGFR(h). The note with it: 4 μM Compound E.

Each structure is given as a SMILES string.

Regarding `Cc1cc(Nc2cc(N3CCN(C)CC3)nc(Sc3ccc(NC(=O)C4CC4)cc3)n2)n[nH]1` [Compound E, Cyclopropane carboxylic acid {4-[4-(4-methyl-piperazin-1-yl)-6-(5-methyl-2H-pyrazol-3-ylamino)-pyrimidin-2-ylsulphanyl]-phenyl}-amide], the “percentage of enzyme activity that remains” value in assay [1] was 108%; in [3], 108%; in assay [4] it was 103%; in assay [10], 98%. The remaining activity at 0.2 µM in assay [2] worked out at 98%; in assay [6], 102%; in [8] it was 91%; in assay [9], 107%. Further, the remaining activity at 4 µM in [2] was found to be 102%; in assay [5], 103%; in assay [7], 100%.
